In patent publication US20240277246A1, “MANGANESE-ENHANCED MAGNETIC RESONANCE IMAGING” (IC Targets AS, priority 2021, published 2024):
Read-outs that look alike come from different tables or passages of the source.

Key:
[1] = test system: cardiomyocytes (left ventricle myocardium; uptake via L-type calcium channels); assay: Manganese-enhanced T1 mapping MRI, kinetic analysis of cardiomyocyte cellular manganese uptake after MnDPDP infusion; format: in vivo, human; conditions: average of 5 patients with hypertrophic cardiomyopathia
Experimental: T1 mapping MRI was performed in a healthy volunteer to obtain baseline T1 values for the blood and myocardium before infusion of MnDPDP. A midventricular short axis view was used and a region of interest in the left ventricle myocardium and a region of interest in the blood in the ventricular cavity were used for measurements. An infusion of MnDPDP was administered at a rate of 50 μmol/min until a dose of 5 μmol/kg body weight was administered. The total infusion time was 7.5 minutes. T1 mapping MRI was performed every 2.5 minutes for a total of 40 minutes to collect data for kinetic analysis. […]
T1 mapping MRI was performed in a patient with a diagnosis of dilated cardiomyopathia to obtain baseline T1 values for the blood and myocardium before infusion of MnDPDP. […]
After the examination, the myocardial T1 values were converted to changes in relaxation rates from the baseline values according to equation 12. The heamocrit for the subject was measured to 0.44 and the plasma T1 values were converted to changes in relaxation rates according to equation 13. […]
The rate constant for cardiomyocyte intracellular relaxivity increase Kcell^ΔR1, and thus the cardiomyocyte cellular manganese uptake rate Kcell^Mn, was calculated according to the invention, applying equation 20 where the constant KECF was set equal to 1. […]

[2] = after end of 7.5 min infusion, 5 μmol/kg

Cc1ncc(COP(=O)(O)O)c(CN(CCN(CC(=O)[O-])Cc2c(COP(=O)(O)O)cnc(C)c2O)CC(=O)[O-])c1O.[Mn+2] [MnDPDP, manganese (II) N,N′-dipyridoxyl-ethylenediamine-N,N′-diacetate-5,5′-bis(phosphate)]
KECF, ratio between manganese concentration in ECF and plasma ([1]; ECV 0.322): 0.72 | K3/K1, rate constant for irreversible uptake relative to rate constant for diffusion between plasma and ECF ([1]; assuming K1=K2): 0.40 | halftime of decline of plasma ΔR1 ([2]; average of 5 patients with hypertrophic cardiomyopathia): approximately 12 minutes | halftime of decline of plasma ΔR1 ([2]; healthy volunteer): approximately 15 minutes | halftime of decline of plasma ΔR1 ([2]; patient with dilated cardiomyopathia): approximately 12 minutes
